Data published in ChEMBL document CHEMBL5321216, “Discovery of bipyridine amide derivatives targeting pRXRα-PLK1 interaction for anticancer therapy” (Eur J Med Chem, 2023).

Species: Homo sapiens
Assay: Selectivity index, ratio of IC50 for HK-2 cells to IC50 for human MDA-MB-231 cells

With `O=C(/C=C/c1ccccc1)Nc1cc(-c2ccnc(N3CCC(CO)CC3)c2)ccn1` the Ratio IC50 was 23.2.
